From BindingDB's records for doi:10.1038/nsb921 (Mahidol University, 2003)

Amino acid sequences for entries named in this document (tags omitted).
UniProt Q8I1R6, whole entry N51I/C59R/S108N/I164L: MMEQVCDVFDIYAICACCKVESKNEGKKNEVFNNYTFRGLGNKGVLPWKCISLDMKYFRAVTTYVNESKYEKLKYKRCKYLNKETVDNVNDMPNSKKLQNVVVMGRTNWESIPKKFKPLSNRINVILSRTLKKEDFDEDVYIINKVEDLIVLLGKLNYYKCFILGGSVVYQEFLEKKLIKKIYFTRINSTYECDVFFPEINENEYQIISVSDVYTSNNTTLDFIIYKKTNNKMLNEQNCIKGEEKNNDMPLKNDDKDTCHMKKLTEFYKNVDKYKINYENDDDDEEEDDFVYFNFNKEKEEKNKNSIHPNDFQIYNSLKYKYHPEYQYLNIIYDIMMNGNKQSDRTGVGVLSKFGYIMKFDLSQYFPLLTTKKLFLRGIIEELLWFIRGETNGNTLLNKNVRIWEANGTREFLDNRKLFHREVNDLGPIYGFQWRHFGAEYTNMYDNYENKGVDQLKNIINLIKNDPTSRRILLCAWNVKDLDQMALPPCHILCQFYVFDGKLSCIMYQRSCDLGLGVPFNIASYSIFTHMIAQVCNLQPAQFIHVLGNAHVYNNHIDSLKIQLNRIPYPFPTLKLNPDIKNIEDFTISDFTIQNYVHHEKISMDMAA

Target: Bifunctional dihydrofolate reductase-thymidylate synthase [N51I,C59R,S108N,I164L] (Plasmodium falciparum (isolate K1 / Thailand), UniProt Q8I1R6, C59R/I164L/N51I/S108N)
Experiment: Antimalarial Testing In Vitro (IC50) and Measurement of Inhibition Constant (Ki)
Conditions: pH 7; 25 °C
Procedure: The activity of pfDHFR-TS was determined spectrophotometrically using a UV-Vis spectrophotometer.

## CCc1nc(N)nc(N)c1-c1ccc(Cl)cc1
  IC50: > 100 µM
  Ki: 0.283 µM
